Measured values reported in US20130089512A1, “HETEROARYL IMIDAZOLONE DERIVATIVES AS JAK INHIBITORS” (priority 2010, published 2013).

Protein sequences, listed by entry. Tags and fused reporters are not part of them. Residues count along the entry.
UniProt P23458, 850-1154: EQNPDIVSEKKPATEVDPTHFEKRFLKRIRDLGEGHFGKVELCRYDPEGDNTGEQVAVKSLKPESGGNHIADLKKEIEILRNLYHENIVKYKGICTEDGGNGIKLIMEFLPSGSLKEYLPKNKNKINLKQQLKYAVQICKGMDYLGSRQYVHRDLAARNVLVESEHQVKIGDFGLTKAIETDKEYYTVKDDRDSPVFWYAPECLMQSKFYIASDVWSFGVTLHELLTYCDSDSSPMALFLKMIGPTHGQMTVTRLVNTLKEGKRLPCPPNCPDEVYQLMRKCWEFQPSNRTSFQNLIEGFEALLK

Molecular target: human JAK1 (aa 850-1154) (Homo sapiens, UniProt P23458)
Assay: In vitro JAK kinase assay (TR-FRET), JAK1

- IC50: 100 to 1000 nM
SMILES: O=c1[nH]c2cnc(-c3cnc4ccc(F)cn34)nc2n1[C@H]1CC[C@H](O)CC1 [Example 48, 2-(6-Fluoroimidazo[1,2-a]pyridin-3-yl)-9-((1r,4r)-4-hydroxycyclohexyl)-7H-purin-8(9H)-one]
